Biological target: Melanocortin receptor 4 (Homo sapiens, UniProt P32245)
Assay: Displacement of Eu-DTAP-NDP-alpha-MSH-NH2 from MC4 receptor expressed in human HEK293 cells after 1 hr by time resolved fluorescence method
Assay type: cell-based

Protein sequences, listed by entry. Tags and fused reporters are not part of them.
UniProt P32245, whole entry: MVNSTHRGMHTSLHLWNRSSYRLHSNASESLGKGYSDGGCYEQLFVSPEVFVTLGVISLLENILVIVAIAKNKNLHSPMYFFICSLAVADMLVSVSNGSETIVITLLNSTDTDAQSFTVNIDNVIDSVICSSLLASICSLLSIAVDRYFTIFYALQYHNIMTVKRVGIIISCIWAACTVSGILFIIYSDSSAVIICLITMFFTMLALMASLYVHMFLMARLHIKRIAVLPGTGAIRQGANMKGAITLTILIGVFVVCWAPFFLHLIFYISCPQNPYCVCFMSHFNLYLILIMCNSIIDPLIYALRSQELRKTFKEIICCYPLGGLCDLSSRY

Compound: CCCCc1cn(CCCCCC(=O)N[C@@H](Cc2cnc[nH]2)C(=O)N[C@H](Cc2ccccc2)C(=O)N[C@@H](CCCNC(=N)N)C(=O)N[C@@H](Cc2c[nH]c3ccccc23)C(N)=O)nn1
- Ki: 1900 nM

Compound: [N-]=[N+]=NCCCCCC(=O)N[C@@H](Cc1cnc[nH]1)C(=O)N[C@H](Cc1ccccc1)C(=O)N[C@@H](CCCNC(=N)N)C(=O)N[C@@H](Cc1c[nH]c2ccccc12)C(N)=O
- Ki: 1300 nM

Reference: ChEMBL document CHEMBL1914415, “A sucrose-derived scaffold for multimerization of bioactive peptides” (Bioorg Med Chem, 2011)
